Measurements taken from US20240324531A1, “METHOD TO INCREASE POLLEN FERTILITY” (Keygene N.V., priority 2021, published 2024).

System: pollen of AC interspecific hybrids from a cross of Brassica oleracea and Brassica rapa
Settings: for viable pollen (MTT staining): low concentration, 20 nM in 0.5 MS medium, AC hybrid inflorescence
[1] = treatment of inflorescences of AC hybrids, concentration not given

## NC1=NC(=O)C(=Cc2ccc(O)cc2)S1 [Mirin, 2-Amino-5-[(4-hydroxyphenyl)methylene]-4(5H)-thiazolone]
Concentration range 20 nM to 1 μM, 10 days
  optimal concentration for increase of viable pollen: about 20 nM
10 days
  viable pollen (MTT staining): higher number of viable pollen grains
10 days, listed as mirin
  viable pollen (MTT staining): increase of viable pollen
[1]
  frequency of viable pollen grains: higher frequency of viable pollen grains
  size of viable pollen grains: larger viable pollen grains

Read-outs that look alike come from different tables or passages of the source.
